# Reference: patent publication US8663703B2, “Drug microparticles, processes of preparing them and a drug delivery vehicle comprising them” (Teva Pharmaceutical Industries, Ltd., priority 2002, dated 2014)
# Experiment: Solubility of selected drugs in menthol melt
# Format: physicochemical
# Conditions: 70 °C
smiles,measurement,value
Cc1nc2n(c(=O)c1CCN1CCC(c3noc4cc(F)ccc34)CC1)CCCC2 [Risperidone],Solubility in menthol,8.3 % w/w
